± gives the expanded uncertainty stated by the source.
Assay: activity coefficient (dimensionless); of the first substance listed, at infinite dilution; xn = mol fraction of the nth substance listed
Conditions: 101.33 kPa, Liquid, Chromatography, x1 = 0

Q: For `CCCCOCCCC` [dibutyl ether] + CC[N+]1(C)CCOCC1.N#CN=C=[N-], which activity coefficient (328.15 K) is on record?
A: The activity coefficient was 358 ± 25.

Q: What about the activity coefficient (338.15 K) of the same compound?
A: Its activity coefficient is 345 ± 24.

Q: And the activity coefficient (348.15 K)?
A: Its activity coefficient is 333 ± 23.

Q: What about the activity coefficient (358.15 K) of the same compound?
A: The activity coefficient was 322 ± 22.

Q: What about the activity coefficient (368.15 K) of the same compound?
A: Its activity coefficient is 312 ± 21.

— the NIST ThermoML archive (doi:10.1016/j.jct.2018.02.014)
